Assay results reported in US20090099157A1, “TETRAHYDRO-PYRAZOLO-PYRIDINE THIOETHER MODULATORS OF CATHEPSIN S” (priority 2007, published 2009).

Sequences of proteins named here, by UniProt entry; tags and fusion partners are left off. Residues count along the entry.
UniProt P25774, 115-331: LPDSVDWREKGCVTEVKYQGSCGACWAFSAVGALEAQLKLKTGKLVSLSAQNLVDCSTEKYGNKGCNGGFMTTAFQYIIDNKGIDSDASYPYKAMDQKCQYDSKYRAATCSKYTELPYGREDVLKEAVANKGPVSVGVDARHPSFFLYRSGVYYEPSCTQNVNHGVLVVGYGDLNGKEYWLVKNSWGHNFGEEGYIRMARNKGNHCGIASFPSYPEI

Biological target: Recombinant human cathepsin S (CatS) (Homo sapiens, UniProt P25774)
Assay: biochemical

Structure (SMILES) | IC50
CS(=O)(=O)N1CCc2c(c(-c3ccc(C(F)(F)F)c(SCCN4CCOCC4)c3)nn2CC(O)CN2CCC[C@@H](O)C2)C1 (stereo partly drawn) [Example 405, (3R)-1-{2-Hydroxy-3-[5-(methylsulfonyl)-3-{3-[(2-morpholin-4-ylethyl)sulfanyl]-4-(trifluoromethyl)phenyl}-4,5,6,7-tetrahydro-1H-pyrazolo[4,3-c]pyridin-1-yl]propyl}piperidin-3-ol] | 0.77 µM
CS(=O)(=O)N1CCc2c(c(-c3ccc(C(F)(F)F)c(SCCN4CCCCC4)c3)nn2CC(O)CN2CCC(n3c(=O)[nH]c4cc(Cl)ccc43)CC2)C1 (stereo not shown) [Example 887, 5-Chloro-1-(1-{2-hydroxy-3-[5-(methylsulfonyl)-3-{3-[(2-piperidin-1-ylethyl)sulfanyl]-4-(trifluoromethyl)phenyl}-4,5,6,7-tetrahydro-1H-pyrazolo[4,3-c]pyridin-1-yl]propyl}piperidin-4-yl)-1,3-dihydro-2H-benzimidazol-2-one] | 0.0085 µM
CC1CCN(CCSc2cc(-c3nn(C[C@@H](O)CN4CCC(C(N)=O)CC4)c4c3CN(S(C)(=O)=O)CC4)ccc2C(F)(F)F)CC1 [Example 597, 1-[(2S)-2-Hydroxy-3-{3-[3-{[2-(4-methylpiperidin-1-yl)ethyl]sulfanyl}-4-(trifluoromethyl)phenyl]-5-(methylsulfonyl)-4,5,6,7-tetrahydro-1H-pyrazolo[4,3-c]pyridin-1-yl}propyl]piperidine-4-carboxamide] | 0.11 µM
CS(=O)(=O)N1CCc2c(c(-c3ccc(C(F)(F)F)c(SCCN4CCCC(CO)C4)c3)nn2CC(O)CN2CCC(C(=O)N3CCCC3)CC2)C1 (stereo not shown) [Example 158, 1-{3-[3-({2-[3-(Hydroxymethyl)piperidin-1-yl]ethyl}sulfanyl)-4-(trifluoromethyl)phenyl]-5-(methylsulfonyl)-4,5,6,7-tetrahydro-1H-pyrazolo[4,3-c]pyridin-1-yl}-3-[4-(pyrrolidin-1-ylcarbonyl)piperidin-1-yl]propan-2-ol] | 0.17 µM
CS(=O)(=O)N1CCc2c(c(-c3ccc(C(F)(F)F)c(SCCN4CCCCC4)c3)nn2CC(O)CN2CCC(NC(N)=O)CC2)C1 (stereo not shown) [Example 600, 1-(1-{2-Hydroxy-3-[5-(methylsulfonyl)-3-{3-[(2-piperidin-1-ylethyl)sulfanyl]-4-(trifluoromethyl)phenyl}-4,5,6,7-tetrahydro-1H-pyrazolo[4,3-c]pyridin-1-yl]propyl}piperidin-4-yl)urea] | 0.03 µM
O=C(c1cccs1)N1CCc2c(c(-c3ccc(C(F)(F)F)c(SCCN4CCC(F)CC4)c3)nn2C[C@@H](O)CN2CCCCC2)C1 [Example 577, (2S)-1-{3-[3-{[2-(4-Fluoropiperidin-1-yl)ethyl]sulfanyl}-4-(trifluoromethyl)phenyl]-5-(2-thienylcarbonyl)-4,5,6,7-tetrahydro-1H-pyrazolo[4,3-c]pyridin-1-yl}-3-piperidin-1-ylpropan-2-ol] | 0.35 µM
CS(=O)(=O)N1CCc2c(c(-c3ccc(C(F)(F)F)c(SCCN4CCC(N5CCCC5)CC4)c3)nn2CC(O)CN2CCC(C(=O)N3CCCCC3)CC2)C1 (stereo not shown) [Example 890, 1-{5-(Methylsulfonyl)-3-[3-{[2-(4-pyrrolidin-1-ylpiperidin-1-yl)ethyl]sulfanyl}-4-(trifluoromethyl)phenyl]-4,5,6,7-tetrahydro-1H-pyrazolo[4,3-c]pyridin-1-yl}-3-[4-(piperidin-1-ylcarbonyl)piperidin-1-yl]propan-2-ol] | 0.65 µM
O=C(CC1CCNCC1)N1CCc2c(c(-c3ccc(C(F)(F)F)c(SCCN4CCC(F)CC4)c3)nn2CC(O)CN2CCCCC2)C1 (stereo not shown) [Example 627, 1-{3-[3-{[2-(4-Fluoropiperidin-1-yl)ethyl]sulfanyl}-4-(trifluoromethyl)phenyl]-5-(piperidin-4-ylacetyl)-4,5,6,7-tetrahydro-1H-pyrazolo[4,3-c]pyridin-1-yl}-3-piperidin-1-ylpropan-2-ol] | 0.5 µM

The remaining lines, values ahead:

IC50 | Structure (SMILES)
0.38 µM | COCC(=O)N1CCc2c(c(-c3ccc(C(F)(F)F)c(SCCN4CCC(F)CC4)c3)nn2CC(O)CN2CCCCC2)C1 (stereo not shown) [Example 372, 1-{3-[3-{[2-(4-Fluoropiperidin-1-yl)ethyl]sulfanyl}-4-(trifluoromethyl)phenyl]-5-[(methyloxy)acetyl]-4,5,6,7-tetrahydro-1H-pyrazolo[4,3-c]pyridin-1-yl}-3-piperidin-1-ylpropan-2-ol]
0.18 µM | CS(=O)(=O)N1CCc2c(c(-c3ccc(C(F)(F)F)c(SCC(=O)N4CCC5CCCCC5C4)c3)nn2CCCN2CCC(N3CCCC3=O)CC2)C1 (stereo not shown) [Example 80, 1-{1-[3-(5-Methanesulfonyl-3-{3-[2-(octahydro-isoquinolin-2-yl)-2-oxo-ethylsulfanyl]-4-trifluoromethyl-phenyl}-4,5,6,7-tetrahydro-pyrazolo[4,3-c]pyridin-1-yl)-propyl]-piperidin-4-yl}-pyrrolidin-2-one]
2.78 µM | OC1CCCN(CCSc2cc(-c3nn(CC(O)CN4CCC(O)(c5ccccn5)CC4)c4c3CNCC4)ccc2C(F)(F)F)C1 (stereo not shown) [Example 462, 1-(2-{[5-{1-[2-Hydroxy-3-(4-hydroxy-4-pyridin-2-ylpiperidin-1-yl)propyl]-4,5,6,7-tetrahydro-1H-pyrazolo[4,3-c]pyridin-3-yl}-2-(trifluoromethyl)phenyl]sulfanyl}ethyl)piperidin-3-ol]
0.025 µM | CS(=O)(=O)N1CCc2c(c(-c3ccc(C(F)(F)F)c(SCCN4CCCCC4)c3)nn2CC(O)CN2CCC(c3ccncc3)CC2)C1 (stereo not shown) [Example 660, 1-[5-(Methylsulfonyl)-3-{3-[(2-piperidin-1-ylethyl)sulfanyl]-4-(trifluoromethyl)phenyl}-4,5,6,7-tetrahydro-1H-pyrazolo[4,3-c]pyridin-1-yl]-3-(4-pyridin-4-ylpiperidin-1-yl)propan-2-ol]
0.07 µM | CS(=O)(=O)NC1CCN(CC(O)Cn2nc(-c3ccc(C(F)(F)F)c(SCC(=O)N4CCOCC4)c3)c3c2CCN(S(C)(=O)=O)C3)CC1 (stereo not shown) [Example 783, N-(1-{2-Hydroxy-3-[5-(methylsulfonyl)-3-{3-[(2-morpholin-4-yl-2-oxoethyl)sulfanyl]-4-(trifluoromethyl)phenyl}-4,5,6,7-tetrahydro-1H-pyrazolo[4,3-c]pyridin-1-yl]propyl}piperidin-4-yl)methanesulfonamide]
5.93 µM | CCN1CCc2c(c(-c3ccc(C(F)(F)F)c(SCC(=O)N4CCCC4)c3)nn2CC(O)CN2CCC(C(N)=O)CC2)C1 (stereo not shown) [Example 331, 1-[3-(5-Ethyl-3-{3-[(2-oxo-2-pyrrolidin-1-ylethyl)sulfanyl]-4-(trifluoromethyl)phenyl}-4,5,6,7-tetrahydro-1H-pyrazolo[4,3-c]pyridin-1-yl)-2-hydroxypropyl]piperidine-4-carboxamide]
0.29 µM | CC1CCN(CCSc2cc(-c3nn(C[C@@H](O)CN4CCOCC4)c4c3CN(S(C)(=O)=O)CC4)ccc2C(F)(F)F)CC1 [Example 391, (2S)-1-{3-[3-{[2-(4-Methylpiperidin-1-yl)ethyl]sulfanyl}-4-(trifluoromethyl)phenyl]-5-(methylsulfonyl)-4,5,6,7-tetrahydro-1H-pyrazolo[4,3-c]pyridin-1-yl}-3-morpholin-4-ylpropan-2-ol]
1.19 µM | CC1(O)CCN(CC(O)Cn2nc(-c3ccc(C(F)(F)F)c(SCCN4CCCC4)c3)c3c2CCN(S(C)(=O)=O)C3)CC1 (stereo not shown) [Example 386, 1-{2-Hydroxy-3-[5-(methylsulfonyl)-3-{3-[(2-pyrrolidin-1-ylethyl)sulfanyl]-4-(trifluoromethyl)phenyl}-4,5,6,7-tetrahydro-1H-pyrazolo[4,3-c]pyridin-1-yl]propyl}-4-methylpiperidin-4-ol]
